According to US5451572A, “Human relaxin formulation” (Genentech, Inc., priority 1993, dated 1995):
Like-named read-outs stand apart in the source and are kept apart here.

Settings: seven days

Compound: CC[C@H](C)[C@@H]1NC(=O)[C@H](C)NC(=O)[C@H]([C@@H](C)CC)NC(=O)[C@H](CCC(N)=O)NC(=O)[C@H](C)NC(=O)[C@H](CCCNC(=N)N)NC(=O)[C@H](C(C)C)NC(=O)[C@H](CC(C)C)NC(=O)[C@H](CCC(=O)O)NC(=O)[C@H](CCCNC(=N)N)NC(=O)CNC(=O)[C@@H](NC(=O)[C@H](CC(C)C)NC(=O)[C@H](CCCCN)NC(=O)[C@@H](NC(=O)[C@@H](NC(=O)[C@H](CCC(=O)O)NC(=O)[C@H](CCC(=O)O)NC(=O)[C@H](CCSC)NC(=O)[C@H](Cc2c[nH]c3ccccc23)NC(=O)[C@H](CO)NC(=O)[C@@H](N)CC(=O)O)C(C)C)[C@@H](C)CC)CSSC[C@@H]2NC(=O)[C@@H](NC(=O)[C@H](CCCCN)NC(=O)[C@H](CC(N)=O)NC(=O)[C@H](C)NC(=O)[C@H](CC(C)C)NC(=O)[C@H](C)NC(=O)[C@H](CO)NC(=O)[C@H](Cc3ccc(O)cc3)NC(=O)[C@H](CC(C)C)NC(=O)[C@@H]3CCC(=O)N3)CSSC[C@H](NC(=O)CNC(=O)[C@H](C(C)C)NC(=O)[C@H](Cc3c[nH]cn3)NC2=O)C(=O)N[C@@H]([C@@H](C)O)C(=O)N[C@@H](CCCCN)C(=O)N[C@@H](CCCNC(=N)N)C(=O)N[C@@H](CO)C(=O)N[C@@H](CC(C)C)C(=O)N[C@@H](C)C(=O)N[C@@H](CCCNC(=N)N)C(=O)N[C@@H](Cc2ccccc2)C(=O)N[C@H](C(=O)O)CSSC[C@@H](C(=O)NCC(=O)N[C@@H](CCSC)C(=O)N[C@@H](CO)C(=O)N[C@H](C(=O)N[C@@H](Cc2c[nH]c3ccccc23)C(=O)N[C@@H](CO)C(=O)N[C@@H](CCCCN)C(=O)N[C@@H](CCCNC(=N)N)C(=O)N[C@@H](CO)C(=O)N[C@@H](CC(C)C)C(=O)O)[C@@H](C)O)NC1=O [long relaxin]
- % remaining main peak (agitated at room temperature): 98.53 ± 0.43%
- % remaining main peak (control, undisturbed at room temperature): 97.84 ± 0.17%
